In the assay the target is Dipeptidyl peptidase 4 (Homo sapiens, UniProt P27487).

By UniProt entry, the sequences of proteins in these tests, tags left out.
UniProt P27487, whole entry: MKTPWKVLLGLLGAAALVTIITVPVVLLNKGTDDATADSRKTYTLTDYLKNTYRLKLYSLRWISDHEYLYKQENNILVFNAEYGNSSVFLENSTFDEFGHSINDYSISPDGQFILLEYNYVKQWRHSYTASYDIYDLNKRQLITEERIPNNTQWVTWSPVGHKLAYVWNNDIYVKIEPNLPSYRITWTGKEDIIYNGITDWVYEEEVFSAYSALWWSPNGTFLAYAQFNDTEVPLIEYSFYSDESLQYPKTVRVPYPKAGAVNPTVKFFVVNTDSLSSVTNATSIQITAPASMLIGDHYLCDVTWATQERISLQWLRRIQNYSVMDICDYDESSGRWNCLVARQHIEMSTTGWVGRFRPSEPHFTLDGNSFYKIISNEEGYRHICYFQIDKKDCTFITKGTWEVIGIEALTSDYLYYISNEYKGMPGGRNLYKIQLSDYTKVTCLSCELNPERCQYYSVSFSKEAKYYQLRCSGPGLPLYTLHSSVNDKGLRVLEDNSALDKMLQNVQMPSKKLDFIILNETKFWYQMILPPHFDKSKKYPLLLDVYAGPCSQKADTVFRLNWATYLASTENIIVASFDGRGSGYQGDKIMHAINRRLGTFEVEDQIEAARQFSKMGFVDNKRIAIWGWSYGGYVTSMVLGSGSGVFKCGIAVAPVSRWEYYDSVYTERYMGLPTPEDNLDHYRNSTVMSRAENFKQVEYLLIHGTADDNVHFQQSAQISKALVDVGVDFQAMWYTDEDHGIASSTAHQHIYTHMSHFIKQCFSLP

As for `C[C@]1(N2Cc3c[nH]nc3C2)CO[C@H](c2cc(F)ccc2F)[C@@H](N)C1`, the midpoint of inhibition, the IC50, lay at 34 nM.

The values are drawn from ChEMBL document CHEMBL4706546, “Sulfoximines as Rising Stars in Modern Drug Discovery? Current Status and Perspective on an Emerging Functional Group in Medicinal Chemistry” (J Med Chem, 2020).
